Data as given in patent US8962819B2, “Anti-C5 alpha antibodies” (Adienne S.A., priority 2002, dated 2015).

System: binding of the TS-A12/22 antibody to C5
Assay: Competitive ELISA on solid-phase C5 after pre-incubation of TS-A12/22 with peptide
Design: species or system human
Conditions: scFv 1 μg/ml
Protocol: Mixtures of scFv TSA-12/22 (1 μg/ml) containing 200, 400 and 800 ng of P5A-18 peptide, with sequence KDMQLGRLHMKTLLPVSK [SEQ ID NO:15], comprising the C5 convertase cleavage site, or 800 ng of unrelated peptide CS5, derived from fibronectin ([…] SEQ ID No. 16 of sequence listing) or 3.5 μg of C5a fragment or saline solution (control) were incubated as described in example 8. Binding of the antibody, pre-incubated in different conditions, was assessed by immuno-enzymatic assay using C5 on solid phase. Inhibition by the P5A-18 peptide of the binding between scFv of the invention and C5 is dose-dependent, ranging between 45% to 90% for peptide concentrations of 200 and 800 ng, respectively. These values correspond to a Ki of 1 μM for the P5A-18 peptide. NO inhibition is observed using C5A or the unrelated peptide.
In order to verify this hypothesis, a peptide of 18 amino acids was synthesised, with sequence: KDMQLGR↓LHMKTLLPVSK (P5A-18 also termed C5cs comprising SEQ ID NO:15). This peptide corresponds to region 727-744 of the mature protein and comprises the cleavage site of C5 convertase (indicated by the arrow) between […] according to SwissProt numbering for human C5 (SEQ ID P01031). The peptide was used in a competitive ELISA assay on the C5 protein on solid phase. […]

KDMQLGRLHMKTLLPVSK [P5A-18, 18 amino acid peptide, region 727-744 of human C5, comprising the C5 convertase cleavage site]
inhibition of binding of TS-A12/22 to C5 (200 ng peptide (/200 μl)): 45% | inhibition of binding of TS-A12/22 to C5 (800 ng peptide (/200 μl)): 90%
